In paper PMC8203840 one finds fold change of binding against TRIM7^B30.2 WT data, which are given here for one substance.

In this assay the target is human glycogenin-1 fused to chitin-binding domain (CBD)-intein (human) (UniProt P46976). Kind of assay: pull-down; CBD-intein-GN1 variants immobilised on chitin beads (20 ul) incubated at 4 °C for 2 h with 50 ul clarified E. coli extracts of His6-TRIM7^B30.2 variants in PBS with protease inhibitor mix; washed three times with PBS; immunoblot with anti-His6 antibody. Background: A western blot detects proteins with antibodies after separation by electrophoresis.

Regarding “TRIM7^B30.2 Arg354Ala (from UniProt Q9C029 338-511) (domain or fragment; other documents disagree on this pair)”, the fold change of binding against TRIM7^B30.2 WT was 2 fold.
